Data on two compounds can be found in PubChem BioAssay AID1224817 (Yan Lab, Georgia Cancer Center, Augusta University, 2016).

The entries are a selection whose mix differs from that of the whole data set. Some results for these compounds are left out of this collection, so the calls shown say nothing about other tests. Active and inactive are the calls of the source.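 How the source made its calls: active means log2 luciferase ratio at or below -0.5849, meaning signal at two thirds of solvent-only control or lower; inactive means the rest.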

The nature of the assay: eIF4E expression suppression, luciferase knock-in reporter – cell-based, HT1080, primary screen (AID 1224817).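 Further: luciferase reports endogenous eIF4E expression since it is co-expressed from the native EIF4E locus.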 The following applies: HT1080 EIF4E-luc2 knock-in reporter, 16 h, at 2.5 µM, hits give low values.
With `C=C(C)C#CC(O)(C(=O)OC1CCN(C)CC1)c1ccccc1` (configuration not stated), the log2 luciferase activity ratio was inactive: -0.166. Then `CN1CCCC(OC(=O)C(O)(c2ccccc2)C2CCCC2)C1` (configuration not stated), with inactive: -0.121.
